{
  "source": "patent US12404348B2",
  "about": "“Bifunctional chimeric molecules for labeling of kinases with target binding moieties and methods of use thereof” (The Brigham and Women's Hospital, Inc., priority 2021, dated 2025)",
  "origin": "cited, not measured here",
  "system": "phCRKL",
  "note": "Read-outs that look alike come from different tables or passages of the source.",
  "data": [
    {"compound": "CC(=O)NC1=NN(c2ccc(Cl)c(Cl)c2)CC1C", "note": "(centres unmarked) [Compound 45]", "values": [
      {"measurement": "Fold Increase phCRKL Vs Total Crk-1. (normalised)", "setting": "40 min", "value": 1, "unit": "x"},
      {"measurement": "Fold Increase phCRKL Vs Total Crk-1. (normalised)", "setting": "180 min", "value": 5, "unit": "x"}
    ]}
  ]
}
